# According to PubChem BioAssay AID440 (NMMLSC, 2006):
# The chains behind the UniProt entries cited, without tags or fusion partners.
# UniProt P21462, whole entry: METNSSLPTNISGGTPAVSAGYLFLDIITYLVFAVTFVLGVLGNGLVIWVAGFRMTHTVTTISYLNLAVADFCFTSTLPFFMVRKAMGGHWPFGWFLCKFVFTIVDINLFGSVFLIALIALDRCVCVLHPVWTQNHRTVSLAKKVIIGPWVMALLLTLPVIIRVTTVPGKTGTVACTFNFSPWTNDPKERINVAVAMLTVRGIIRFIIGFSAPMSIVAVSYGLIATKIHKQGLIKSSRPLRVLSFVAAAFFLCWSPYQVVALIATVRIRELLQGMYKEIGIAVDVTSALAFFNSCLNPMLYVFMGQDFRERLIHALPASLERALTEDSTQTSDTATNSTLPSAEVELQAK
# The entries are a selection whose mix differs from that of the whole data set. Some of these compounds have results that are not shown, active ones among them. Calls of active or inactive are those of the source. Cut-off read from the data, not from the text of the source: active = inhibition above about 30%; inconclusive = no clear call, values can overlap the other calls; inactive = below that.
# Molecular target: fMet-Leu-Phe receptor (Homo sapiens) (UniProt P21462)
# Assay: human FPR ligands by binding competition, primary screen, cell-based, FPRL1 counter-screen, flow cytometry (AID 440);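 note: 0% = buffer wells and 100% = receptor blocker peptide wells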
# Conditions: FPR-expressing cells, fluorescent ligand binding, active compounds read high, concentration not given here
row,Structure (SMILES),inhibition
1,O=C(OC1CN2CCC1CC2)C(CO)(c1ccccc1)c1ccccc1 (stereo unspecified),inactive: -5.1%
